The record followed here is WO2020158863A1, “Combined drug of anthracycline compound-containing micelle preparation with immunostimulant” (priority 2019, dated 2020).

The assay concerns GL261-luc. Kind of assay: In vivo antitumor effect assay by orthotopic brain transplantation, GL261-luc (Experimental Example 4). The arrangement: species or system mouse.

SMILES strings stand for the structures. Counter-ions that a name gives are not always drawn.

Take `COc1cccc2c1C(=O)c1c(O)c3c(c(O)c1C2=O)C[C@@](O)(C(=O)CO)C[C@@H]3O[C@H]1C[C@H](N)[C@@H](O)[C@H](C)O1` [Epi, Epirubicin hydrochloride]: the “antitumor effect (luminescence intensity)” value (tail vein, Day 6, 10, 14, Fig. 4) is listed as “no antitumor effect was confirmed”. Also, the “survival (death of mice)” value (transplantation = Day 0, Fig. 5) was “all the mice died between Day30 and Day40”.
